# Tests used:
# The chains behind the UniProt entries cited, without tags or fusion partners. A line that says so, or that is headed by a name, gives the form on record, which may keep a tag or linker. Residues count along the entry.
# UniProt P21802, 22-821 V564F: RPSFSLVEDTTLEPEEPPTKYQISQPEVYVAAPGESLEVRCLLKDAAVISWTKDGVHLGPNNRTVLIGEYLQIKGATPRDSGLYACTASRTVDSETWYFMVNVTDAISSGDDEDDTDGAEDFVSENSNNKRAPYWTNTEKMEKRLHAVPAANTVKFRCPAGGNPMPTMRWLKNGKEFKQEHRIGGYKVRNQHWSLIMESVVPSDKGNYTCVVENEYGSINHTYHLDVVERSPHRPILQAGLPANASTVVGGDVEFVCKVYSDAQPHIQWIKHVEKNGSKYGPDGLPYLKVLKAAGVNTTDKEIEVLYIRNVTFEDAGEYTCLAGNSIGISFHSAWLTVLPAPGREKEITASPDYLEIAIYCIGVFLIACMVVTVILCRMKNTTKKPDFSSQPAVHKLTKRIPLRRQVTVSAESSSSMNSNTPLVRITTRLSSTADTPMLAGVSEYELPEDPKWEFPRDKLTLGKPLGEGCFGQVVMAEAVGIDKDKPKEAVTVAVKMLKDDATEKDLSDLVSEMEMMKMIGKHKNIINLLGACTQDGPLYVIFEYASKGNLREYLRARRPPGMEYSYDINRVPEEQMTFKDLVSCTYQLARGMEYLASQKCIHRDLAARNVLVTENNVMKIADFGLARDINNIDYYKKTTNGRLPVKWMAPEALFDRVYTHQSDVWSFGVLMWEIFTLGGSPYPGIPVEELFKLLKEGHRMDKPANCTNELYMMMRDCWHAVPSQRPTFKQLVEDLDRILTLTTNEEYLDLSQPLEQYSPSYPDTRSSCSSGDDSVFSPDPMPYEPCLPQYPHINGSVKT
# UniProt P21802, with tags, fused parts or gaps V564F: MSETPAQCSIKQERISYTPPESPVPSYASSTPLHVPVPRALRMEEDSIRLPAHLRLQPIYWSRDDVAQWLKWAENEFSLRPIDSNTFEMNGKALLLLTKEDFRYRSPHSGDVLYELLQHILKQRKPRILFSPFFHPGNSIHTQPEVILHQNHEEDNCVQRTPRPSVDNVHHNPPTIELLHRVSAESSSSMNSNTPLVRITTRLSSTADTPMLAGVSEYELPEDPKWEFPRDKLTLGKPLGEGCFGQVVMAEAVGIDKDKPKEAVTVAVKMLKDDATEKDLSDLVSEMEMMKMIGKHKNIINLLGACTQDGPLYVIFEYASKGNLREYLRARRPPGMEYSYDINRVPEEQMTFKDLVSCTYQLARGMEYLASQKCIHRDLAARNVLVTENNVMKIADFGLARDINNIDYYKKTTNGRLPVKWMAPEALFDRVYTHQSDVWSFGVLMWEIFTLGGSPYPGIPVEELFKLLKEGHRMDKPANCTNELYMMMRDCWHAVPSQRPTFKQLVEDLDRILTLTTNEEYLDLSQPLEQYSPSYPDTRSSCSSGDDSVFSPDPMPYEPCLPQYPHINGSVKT
# [1] = molecular target: T1, FGFR2 V564F mutant polypeptide (Homo sapiens, UniProt P21802, V564F)
# [2] = molecular target: T2, TEL-fused FGFR2 V564F mutant polypeptide (Homo sapiens, UniProt P21802, V564F); assay: In vitro cell proliferation inhibition (WST-8), Ba/F3 strain stably expressing TEL-fused FGFR2 V564F mutant
# [3] = molecular target: T1, FGFR2 V564F mutant polypeptide; remark: listed apart in the source
# [4] = molecular target: tumor cells that express the TEL-fused FGFR2 V564F mutant polypeptide (Homo sapiens, UniProt P21802, V564F); settings: mouse, in vivo, po
# [5] = molecular target: T2, TEL-fused FGFR2 V564F mutant polypeptide; settings: mouse, in vivo
SMILES,IC50 RATIO RELATIVE TO WT FGFR2 [1],cell proliferation-inhibiting activity compared to the strain stably expressing wild-type FGFR2 [1],cell proliferation-inhibiting activity compared to the strain stably expressing TEL-fused wild-type FGFR2 [2],phosphorylation inhibitory effect compared to that on the wild-type FGFR2 polypeptide [3],tumor proliferation-inhibiting activity compared to mice carrying tumor cells expressing TEL-fused wild-type FGFR2 [4],inhibitory effect on phosphorylation in tumors compared to mice carrying tumor cells expressing TEL-fused wild-type FGFR2 [5]
"CCN(CC)CCCCNc1ncc2cc(-c3cc(OC)cc(OC)c3)c(NC(=O)NC(C)(C)C)nc2n1 [Compound B, PD173074, reference compound]",90,greatly weakened,greatly weakened,,,
Cc1nc2ccc(-n3ncc(C(=O)c4cc5ccccc5[nH]4)c3N)cc2[nH]1 [Compound A],1.9,hardly any change,hardly any change,did not reduce much,hardly any change,hardly any change

# Source: patent publication US10391081B2, “FGFR gatekeeper mutant gene and drug targeting same” (CHUGAI SEIYAKU KABUSHIKI KAISHA, priority 2013, dated 2019)
